From US10562947B2, “Compositions and methods for preventing or treating diseases, conditions or processes characterized by aberrant fibroblast proliferation and extracellular matrix deposition” (MOERAE MATRIX, INC., priority 2011, dated 2020)

Sequences of proteins named here, by UniProt entry; tags and fusion partners are left off. A change or cut given only in a name is not applied to a line headed by its entry.
UniProt Q9H4B4: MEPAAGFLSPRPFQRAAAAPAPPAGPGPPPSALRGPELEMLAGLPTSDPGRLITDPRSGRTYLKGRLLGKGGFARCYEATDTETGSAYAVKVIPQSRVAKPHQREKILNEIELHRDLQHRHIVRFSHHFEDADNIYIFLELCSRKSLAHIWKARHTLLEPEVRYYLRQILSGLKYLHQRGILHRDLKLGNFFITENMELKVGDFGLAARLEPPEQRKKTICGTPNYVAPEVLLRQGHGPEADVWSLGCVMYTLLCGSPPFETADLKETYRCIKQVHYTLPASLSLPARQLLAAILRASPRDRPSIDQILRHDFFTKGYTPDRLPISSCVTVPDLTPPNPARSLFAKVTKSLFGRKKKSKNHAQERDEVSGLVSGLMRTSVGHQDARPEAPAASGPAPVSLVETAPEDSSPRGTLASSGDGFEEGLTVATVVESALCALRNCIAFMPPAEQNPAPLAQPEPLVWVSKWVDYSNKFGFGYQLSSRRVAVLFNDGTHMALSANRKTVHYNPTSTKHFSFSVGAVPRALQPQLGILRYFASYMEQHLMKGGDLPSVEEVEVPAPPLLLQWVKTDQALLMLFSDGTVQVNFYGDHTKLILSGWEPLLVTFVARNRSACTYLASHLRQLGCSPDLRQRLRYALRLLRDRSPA

Key:
Assay in all cases: Kinase Profiling Assay
Format in all cases: biochemical
Conditions in all cases: 100 μM peptide
Abl(H396P)(h) = Abl(H396P)(h) (Homo sapiens, UniProt P00519, H396P)
How it was run: (§1)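 Specificity of the MK2-directed peptides is examined by measuring activity of 266 human kinases, every determination performed in duplicate.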

MKK7β(h) = target: T1, MKK7β(h) (Homo sapiens, UniProt O14733)
T1 sequence (O14733 1-419): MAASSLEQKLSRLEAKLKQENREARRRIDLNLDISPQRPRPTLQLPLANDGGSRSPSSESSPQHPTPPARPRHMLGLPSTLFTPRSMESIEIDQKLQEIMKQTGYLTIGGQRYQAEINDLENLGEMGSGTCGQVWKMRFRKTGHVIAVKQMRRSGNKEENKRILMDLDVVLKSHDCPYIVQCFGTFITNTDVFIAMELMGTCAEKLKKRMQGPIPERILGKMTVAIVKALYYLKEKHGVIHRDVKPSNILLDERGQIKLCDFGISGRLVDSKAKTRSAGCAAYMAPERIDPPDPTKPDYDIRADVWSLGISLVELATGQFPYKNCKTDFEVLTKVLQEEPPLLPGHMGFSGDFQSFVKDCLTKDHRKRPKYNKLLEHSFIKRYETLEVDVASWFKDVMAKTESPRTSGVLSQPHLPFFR
How it was run: as §1

Plk3(h) = target: T2, Plk3(h) (Homo sapiens, UniProt Q9H4B4)
T2 construct: purchased Millipore (IC50 Profiler Express service)
How it was run: as §1

cKit(V560G)(h) = cKit(V560G)(h) (Homo sapiens, UniProt P10721, V560G)
How it was run: as §1

CDK9/cyclin T1(h) = CDK9/cyclin T1(h) (Homo sapiens, UniProt P50750)
How it was run: as §1

Abl(Q252H)(h) = Abl(Q252H)(h) (Homo sapiens, UniProt P00519, Q252H)
How it was run: as §1

DDR2(h) = target: T3, DDR2(h) (Homo sapiens, UniProt Q16832)
T3 sequence (Q16832 22-855): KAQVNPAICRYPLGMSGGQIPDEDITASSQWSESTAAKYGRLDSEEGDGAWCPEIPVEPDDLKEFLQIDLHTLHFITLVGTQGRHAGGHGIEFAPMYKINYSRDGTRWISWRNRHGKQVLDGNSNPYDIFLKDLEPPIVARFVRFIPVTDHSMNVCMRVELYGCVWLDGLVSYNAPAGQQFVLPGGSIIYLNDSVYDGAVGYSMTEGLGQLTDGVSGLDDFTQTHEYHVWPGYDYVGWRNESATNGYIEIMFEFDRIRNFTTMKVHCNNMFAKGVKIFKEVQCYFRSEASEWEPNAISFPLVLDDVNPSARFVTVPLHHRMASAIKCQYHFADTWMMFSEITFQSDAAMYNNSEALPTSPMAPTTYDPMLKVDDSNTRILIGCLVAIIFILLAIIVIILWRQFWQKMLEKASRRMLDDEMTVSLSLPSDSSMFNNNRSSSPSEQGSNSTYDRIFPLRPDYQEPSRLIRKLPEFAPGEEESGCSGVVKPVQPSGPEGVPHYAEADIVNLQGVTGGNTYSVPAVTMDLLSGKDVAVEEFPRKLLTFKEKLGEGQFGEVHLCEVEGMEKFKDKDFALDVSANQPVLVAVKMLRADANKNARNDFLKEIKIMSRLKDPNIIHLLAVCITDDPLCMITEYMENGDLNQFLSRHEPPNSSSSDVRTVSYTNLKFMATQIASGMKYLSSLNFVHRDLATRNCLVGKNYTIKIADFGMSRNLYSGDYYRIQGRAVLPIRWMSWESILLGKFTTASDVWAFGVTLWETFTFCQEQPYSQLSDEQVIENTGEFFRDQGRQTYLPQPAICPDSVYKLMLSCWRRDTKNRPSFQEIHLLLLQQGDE
How it was run: as §1

IKKα(h) = target: T4, IKKα(h) (Homo sapiens, UniProt O15111)
T4 construct: purchased Millipore
T4 sequence (O15111 1-745): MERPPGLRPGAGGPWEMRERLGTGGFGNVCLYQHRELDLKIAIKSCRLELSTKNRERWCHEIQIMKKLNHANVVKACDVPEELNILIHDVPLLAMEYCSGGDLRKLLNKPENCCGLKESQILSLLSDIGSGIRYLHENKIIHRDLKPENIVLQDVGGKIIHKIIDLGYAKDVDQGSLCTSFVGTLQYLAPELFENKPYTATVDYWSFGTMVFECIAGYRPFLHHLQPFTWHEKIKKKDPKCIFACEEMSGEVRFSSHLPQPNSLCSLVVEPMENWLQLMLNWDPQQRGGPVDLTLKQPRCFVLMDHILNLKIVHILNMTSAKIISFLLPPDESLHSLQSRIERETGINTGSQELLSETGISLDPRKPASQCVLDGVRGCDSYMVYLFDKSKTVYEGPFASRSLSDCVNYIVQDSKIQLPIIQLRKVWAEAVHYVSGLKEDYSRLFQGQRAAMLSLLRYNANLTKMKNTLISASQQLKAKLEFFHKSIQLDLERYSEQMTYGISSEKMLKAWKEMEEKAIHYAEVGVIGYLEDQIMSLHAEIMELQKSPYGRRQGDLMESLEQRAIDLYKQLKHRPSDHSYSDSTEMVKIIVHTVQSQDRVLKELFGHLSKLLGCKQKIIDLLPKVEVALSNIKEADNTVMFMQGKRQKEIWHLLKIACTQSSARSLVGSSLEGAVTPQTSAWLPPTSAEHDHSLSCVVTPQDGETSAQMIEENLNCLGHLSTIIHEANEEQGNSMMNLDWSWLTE
How it was run: as §1

MAPK2(h) = MAPK2(h) (Homo sapiens, UniProt P28482)
How it was run: as §1

CDK2/cyclinA(h) = CDK2/cyclinA(h) (Homo sapiens, UniProt P24941)
How it was run: as §1

Sequence: YARAAARQARAKALNRQLGVA (Mammalian) [MMI-0200]
- Abl(H396P)(h) % activity (Abl(H396P)(h)): 121%
- MKK7β(h) % activity (MKK7β(h)): 117%
- Plk3(h) % activity (Plk3(h)): 107%
- cKit(V560G)(h) % activity (cKit(V560G)(h)): 115%
- CDK9/cyclin T1(h) % activity (CDK9/cyclin T1(h)): 103%
- Abl(Q252H)(h) % activity (Abl(Q252H)(h)): 107%
- DDR2(h) % activity (DDR2(h)): 104%
- IKKα(h) % activity (IKKα(h)): 104%
- MAPK2(h) % activity (MAPK2(h)): 105%
- CDK2/cyclinA(h) % activity (CDK2/cyclinA(h)): 114%
